From publication PMC4156518 (Cell metabolism, 2014) come the findings set out here.

The target in the assay is T1, UCP2 (murine, residues 14-309) (Mus musculus, UniProt P70406).
T1 sequence (P70406 14-309): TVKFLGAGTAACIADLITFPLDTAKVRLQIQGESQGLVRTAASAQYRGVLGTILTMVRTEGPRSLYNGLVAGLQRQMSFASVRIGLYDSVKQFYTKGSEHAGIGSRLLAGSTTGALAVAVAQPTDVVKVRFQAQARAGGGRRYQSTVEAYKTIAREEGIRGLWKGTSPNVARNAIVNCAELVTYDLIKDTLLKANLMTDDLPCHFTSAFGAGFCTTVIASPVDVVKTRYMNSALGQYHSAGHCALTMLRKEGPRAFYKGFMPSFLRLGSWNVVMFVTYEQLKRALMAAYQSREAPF
The conditions noted are these: 50 µM GDP, DPC/lipid micelles, pH 6.5; peripheral site between H1 and H6.

Take `CCCCCCCCCCCCCC1(CCCC(=O)O)OCC(C)(C)N1[O]` (stereo not shown) [NO-FA]: the “NMR paramagnetic relaxation enhancement, displacement by GDP” value is on record as “GDP displacing FA from its binding site”.
